One data set deals with human LC. The data set can be described thus: activation of LC from healthy donors and CIN/HIV patients, planned. It counts as cell-based.
For another data set, the system named is cells. Conditions: 30 μM used in the assays.
The subject of data set [1] is LC. The settings on record: Burns et al. 2000; Suzuki et al. 2000; cited from earlier work.
Data set [2] deals with LC. The settings on record: allogenic MLR; Burns et al. 2000; cited from earlier work.

Consider one compound from US20110077263A1, “Methods and Compositions of Toll-Like Receptor (TLR) Agonists” (priority 2009, published 2011).

With `CC(C)Cn1cnc2c(N)nc3ccccc3c21` [imiquimod], the “phenotypic and functional activation of human LC from CIN/HIV patients” value in the data set on human LC is reported as “not”. In addition, the “concentration toxic to the cells, relative to that used in the assays” value with cells was 2 -fold. The “phenotypic and functional activation of LC” value in the data set with LC [1] is listed as “do not phenotypically but functionally activate LC”. Moreover, the “allostimulatory capacity of treated LC (T cell proliferation)” value in the data set with LC [2] was “only modestly induced T cell proliferation”.
